Reference: ChEMBL document CHEMBL3232792, “Cyclic secondary sulfonamides: unusually good inhibitors of cancer-related carbonic anhydrase enzymes” (J Med Chem, 2014)

By UniProt entry, the sequences of proteins in these tests, tags left out. Where a name states a change or a piece, a line headed by the entry shows the natural chain unless it says otherwise.
UniProt Q9ULX7: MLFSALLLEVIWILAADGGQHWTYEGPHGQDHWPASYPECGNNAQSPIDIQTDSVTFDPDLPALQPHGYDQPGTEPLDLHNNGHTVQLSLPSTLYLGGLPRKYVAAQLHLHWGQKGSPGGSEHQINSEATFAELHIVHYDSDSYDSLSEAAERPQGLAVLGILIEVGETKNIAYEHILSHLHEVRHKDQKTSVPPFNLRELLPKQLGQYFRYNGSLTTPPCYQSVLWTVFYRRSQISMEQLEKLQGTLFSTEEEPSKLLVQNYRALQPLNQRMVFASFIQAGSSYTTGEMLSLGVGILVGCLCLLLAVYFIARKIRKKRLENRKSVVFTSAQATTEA

Biological target: Carbonic anhydrase 14 (Homo sapiens, UniProt Q9ULX7)

O=C1NS(=O)(=O)c2ccccc21 [SACCHARIN]
Ki: 0.773 µM
